Values quoted from earlier work in article PMC12580894 (Cancer Research Communications, 2025).

How the values were obtained:
advanced solid tumors = conditions: human, in vivo; cited from earlier work
[1] = test system: bladder and non–small cell lung cancer cell lines; conditions: cited from earlier work
[2] = test system: advanced or metastatic gastrointestinal malignancies; conditions: in vivo; cited from earlier work

C[C@@H]1COCCN1c1cc(-c2ccnn2C)c2ccnc(-c3ccn[nH]3)c2n1 [elimusertib]
Objective response rates (advanced solid tumors): modest | tolerability of alternate schedule 3 days on and 11 days off (advanced solid tumors): better tolerated | combination effect with either cisplatin or carboplatin [1]: synergistic effects | efficacy with concomitant administration [2]: without any appreciable improvement in efficacy
